Most compounds without a hit are left out; they make up all but 2.5% or so of the library.
Anesthetic bind: binds horse apoferritin like a general anesthetic; P02791; apoferritin/1-aminoanthracene competitive binding, fluorescence; Potency, µM (top dose mostly 77.5 µM), without a hit: at the highest dose activity change, negative = displacement, most hits filed as inhibitors; actives 0.074% (n = 350,000); AID 485281; further: potency means the concentration at half of the fitted maximal effect; on the % scale 0 is the no-effect control and ±100 the full control effect; nearly all actives have a fitted effect of over 20% in size
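Probe: 1-aminoanthracene (50% saturated, PBS). Protein: horse-spleen apoferritin, 10 uM. Incubation: 10 min, room temperature. Detection: 380 nm excitation, 535 nm emission. Analysis: normalized response, four-parameter Hill.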
rTrxR1 inhibitor: blocks rat thioredoxin reductase 1. recombinant rTrxR1, NADPH fluorescence consumption, selenite substrate. Potency, µM (series often up to 114 µM), inactives show at the highest dose activity change, negative = inhibition, hits mostly inhibitors. actives 1% (n = 390,000); further: potency means the concentration at half of the fitted maximal effect; on the % scale 0 is the no-effect control and ±100 the full control effect; nearly all actives have a fitted effect of over 65% in size
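Rat TrxR1 (90 nM in the dispensed reagent) was pre-reduced with 400 uM NADPH for 5 min at room temperature, then incubated with compound for 15 min. After 400 uM selenite was added, NADPH fluorescence (Ex 340/Em 450 nm) was followed for 8 min.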
miR-21 reporter: miR-21 reporter, rising signal. 340,000 tested, under 10 active. Potency, µM (highest dose often 38.3 µM), for the others: at the highest dose reporter change, positive = more light. HeLa miR-21 FLuc reporter, luciferase, 48 h. AID 2288; active = well fitted rising curve with a large enough effect; inconclusive = small, poorly fitted or top-dose-only effect; inactive = no such curve, though single readings can be large or run the other way;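 further: % of control where 0% means no effect; miR-21 action dims this reporter so a rising signal means less miR-21 action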
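Compounds were titrated across several concentrations (up to approximately 40 uM) and incubated 48 hours with HeLa miR-21-FLuc reporter cells (miR-21 target sequence downstream of FLuc, endogenous miR-21). Readout was firefly luciferase luminescence after lytic detection reagent.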
ClpP mod: qHTS Assay for Activators of ClpP | ATP-dependent Clp protease proteolytic subunit (Bacillus subtilis (strain 168)), P80244 | Potency, µM (series often up to 57.5 µM), for inactives: at the top dose activity change, negative = active | actives 1.9% (n = 340,000) | purified B. subtilis ClpP, FRET peptide cleavage, 20 min; active means well fitted falling curve with a large enough effect; inconclusive means small, poorly fitted or top-dose-only effect; inactive means no such curve, though single readings can be large or run the other way; further: potency means the concentration at half of the fitted maximal effect; the source files actives as falling curves though it sought activators and does not explain the sign; nearly all actives have a fitted effect of over 65% in size
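Purified B. subtilis ClpP, 10 microg/mL final in Tris/HCl pH8 with KCl, BSA, glycerol and Tween-20, cleaved an Abz/nitrotyrosine-quenched decapeptide. Fluorescence (ex 320, em 430) was read at 0 and 20 min at room temperature. Delta was normalized to 5.8 microM ADEP and DMSO/no-enzyme controls.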
TrxR1 substrate: is turned over as a substrate by rat TrxR1; O89049; purified TrxR1 substrate turnover, NADPH consumption readout; Potency, µM (titrated, usually from 114 µM), for the others: at the highest dose activity change, negative = substrate turnover; actives 0.01% (n = 390,000); AID 588456; further: potency means the concentration at half of the fitted maximal effect; on the % scale 0 is the no-effect control and ±100 the full control effect; nearly all actives have a fitted effect of over 50% in size
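Rat TrxR1, dispensed at 90 nM, was prereduced with 400 uM NADPH (final) for 5 min at ~22 deg C, then incubated with compound 15 min before 400 uM selenite. A first-read NADPH fluorescence drop versus no-compound background flagged substrates.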
Starred values were filed as active, the others as inactive; ? = inconclusive; · = no result; [ ] = another dose, or the depositor's remark. Unless noted, the call rests on the fitted dose curve; in most records, active means well fitted curve in the direction sought with a large enough effect; inconclusive means small, poorly fitted or top-dose-only effect, or another doubt; inactive means no such curve, though single readings can be large; an effect the other way counts as inactive or inconclusive.

No.	mol	Anesthetic bind	rTrxR1 inhibitor	miR-21 reporter
1	N#Cc1c(-c2ccc3c(c2)OCO3)csc1N	-5.9%	31.9%[57.1 µM]	-33.0%
2	CCN(CCCN(C)C)c1ccc(/C=C/c2ccnc3ccccc23)cc1	·	?	·
3	CCn1nc(C)c2c(-c3ccccc3)cc(=O)n(C(C)C(=O)Nc3cccc(F)c3)c21 (configuration not stated)	-0.4%	33.1%[57.1 µM]	17.5%
4	CC(=O)N(CC(=O)O)c1ccccc1	0.9%	-5.6%	0.0%
5	CCN(C(=O)N(CC)c1ccccc1)c1ccccc1	·	30.2%	·
6	O=C(c1ccco1)N1CCN(C(=O)c2sccc2-c2ccccc2)CC1	0.2%	15.8µM*	3.6%
7	COc1ccc(-c2csc3ncnc(N4CCN(C(=O)c5ccco5)CC4)c23)cc1	·	56.2µM*	·
8	Cc1nc(-c2ccccc2)sc1-c1ccc(SCC(=O)Nc2ccccc2)nn1	-3.2%	22.0%	-18.6%
9	CN(C)c1ccc(N=Cc2nc(-c3ccccc3)oc2O)cc1	-11.1%	-3.3%	-15.5%
10	Cc1nn(CCCC(=O)NCc2cccc(Cl)c2)c(=O)c2c1sc1ccccc12	54.6%	82.1%	-34.9%
11	O=[N+]([O-])c1ccc2c(c1)Cc1cc(F)ccc1-2	·	18.7%	·
12	O=[N+]([O-])c1ccc2c(c1)C=CC2	·	12.6µM*	·

No.	ClpP mod	TrxR1 substrate
1	-3.4%	3.6%[57.1 µM]
2	1.8%	-28.2%
3	4.3%	6.6%[57.1 µM]
4	17.8µM*	-2.3%
5	1.0%	4.6%
6	0.2%	5.0%[57.1 µM]
7	0.0%	8.5%
8	?	13.4%
9	22.4µM*	0.0%
10	?	82.6%
11	·	-2.9%
12	0.1%	1.7%

An excerpt of these results, field by field.
1: N#Cc1c(-c2ccc3c(c2)OCO3)csc1N
  Anesthetic bind = -5.9%
  rTrxR1 inhibitor = 31.9%[57.1 µM]
  miR-21 reporter = -33.0%
  ClpP mod = -3.4%
  TrxR1 substrate = 3.6%[57.1 µM]

2: CCN(CCCN(C)C)c1ccc(/C=C/c2ccnc3ccccc23)cc1
  Anesthetic bind = ·
  rTrxR1 inhibitor = ?
  miR-21 reporter = ·
  ClpP mod = 1.8%
  TrxR1 substrate = -28.2%

The list goes on:
No.	mol	Anesthetic bind	rTrxR1 inhibitor	miR-21 reporter
13	O=S(=O)(c1ccccc1)n1ccc(-c2cnc(-c3ccccc3)s2)n1	-13.6%	-5.6%	-47.6%
14	COc1ccccc1C(NC(=O)CC(C)C)c1c(O)ccc2ccccc12 (configuration not stated)	-10.9%	4.1%	-3.1%
15	O=C(Cn1c(=O)oc2ccccc21)NCc1ccccc1Cl	-9.1%	24.1%[57.1 µM]	-40.8%
16	ClC(Cl)c1nnc(-c2ccccc2)c(-c2c[nH]c3ccccc23)n1	-15.2%	-10.3%	-8.0%
17	c1ccc(-c2nnc(-c3c[nH]c4ccccc34)nc2-c2ccccc2)cc1	-20.6%	14.1%[57.1 µM]	-5.1%
18	COCCCn1c(=NC(=O)c2ccccc2)c(C#N)cc2c(=O)n3cccc(C)c3nc21	6.6%	174.9%	?
19	Cc1cccn2c(=O)c3cc(C#N)c(=O)n(Cc4cccnc4)c3nc12	4.8%	25.3%	-0.1%
20	Cc1cccn2c(=O)c3cc(C#N)c(=NC(=O)c4ccco4)n(Cc4ccco4)c3nc12	35.6%	2.5%	3.5%
21	Cc1cccn2c(=O)c3cc(C#N)c(=NC(=O)c4ccccc4)n(Cc4ccco4)c3nc12	·	50.1µM*	·
22	Cc1cccc(C(=O)N=c2c(C#N)cc3c(=O)n4cccc(C)c4nc3n2Cc2ccco2)c1	18.3%	6.31µM*	-4.1%
23	CCCCn1c(N)c(N(CCOC)C(=O)c2ccc(-c3ccc(C(C)=O)cc3)o2)c(=O)[nH]c1=O	·	-22.4%	·
24	CCCCN(C(=O)c1cc(-c2ccco2)nc2ccccc12)c1c(N)n(CCCC)c(=O)[nH]c1=O	·	?	·

No.	ClpP mod	TrxR1 substrate
13	14.1µM*	5.6%
14	35.5µM*	-0.4%
15	-0.6%	3.2%[57.1 µM]
16	25.1µM*	-7.7%
17	-1.6%	10.0%[57.1 µM]
18	-5.0%	167.3%[57.1 µM]
19	2.82µM*	352.2%
20	·	29.1%
21	·	70.0%
22	4.3%	105.8%
23	31.6µM*	34.2%
24	·	13.6%[57.1 µM]

Following part:
No.	mol	Anesthetic bind	rTrxR1 inhibitor	miR-21 reporter
25	CCCN(C(=O)c1cc(-c2ccco2)nc2ccccc12)c1c(N)n(Cc2ccccc2)c(=O)[nH]c1=O	·	28.2µM*	·
26	CCCCn1c(N)c(N(CCOC)C(=O)c2cc(-c3ccco3)nc3ccccc23)c(=O)[nH]c1=O	·	50.1µM*	·
27	COc1ccccc1/C=C/c1nc(C#N)c(NCc2ccccc2)o1	461.0%	66.1%	-27.5%
28	CC(C)(C)c1ccc(C(=O)COC(=O)CN2C(=O)NC3(CCCC3)C2=O)cc1	25.1µM*	-10.5%	0.1%
29	CCOc1ccc(CNC(=O)CCS(=O)(=O)c2cc3c(cc2Cl)NC(=O)CO3)cc1OC	-16.6%	0.9%	-8.1%
30	COc1ccccc1-c1cc(C(F)(F)F)nc(N2CCCC2)n1	-5.7%	-2.2%	-3.2%

No.	ClpP mod	TrxR1 substrate
25	?	2.3%
26	?	5.8%
27	4.7%	159.8%
28	?	-11.1%
29	1.5%	-2.9%
30	?	4.9%

In the list so far, these contain two or more sulfur atoms:
No.	mol	Anesthetic bind	rTrxR1 inhibitor	miR-21 reporter
8	Cc1nc(-c2ccccc2)sc1-c1ccc(SCC(=O)Nc2ccccc2)nn1	-3.2%	22.0%	-18.6%
13	O=S(=O)(c1ccccc1)n1ccc(-c2cnc(-c3ccccc3)s2)n1	-13.6%	-5.6%	-47.6%

No.	ClpP mod	TrxR1 substrate
8	?	13.4%
13	14.1µM*	5.6%

Source: PubChem
